From US5401725A, “Neovascularization inhibition by adenosine-5'-phosphosulfates” (Unitika Ltd., priority 1990, dated 1995)

What was measured:
[1] = system: capillary vessel hyperplasia (experimental diabetic retinopathy); assay: therapeutic effect on experimental diabetic retinopathy; set-up: species or system rat (wister); conditions: rat, in vivo; for beneficial effect on the pathologic state: ip
Method: First, streptozocin in an amount of 65 mg/kg was administered to a six-week aged male wister rat from its vena caudalis, and about three months thereafter, 3,3'-iminodipropionitrile was administered. Rats in which abnormal growth of capillary vessel (hyperplasia retinitis) was observed were screened out and were subjected to a medicament administration test with ten rats as a group.
For comparison purposes, the effect of the medroxyprogesterone acetate (MPA), the conventional substance for inhibiting the neovascularization, was also tested by the same procedure as described above.

[2] = system: neovascularization in the cornea; assay: inhibition of neovascularization in the cornea of rabbits (slow-releasing pellet); conditions: rabbit, in vivo
[3] = system: neovascularization of chorio-allantoic membranes; assay: neovascularization inhibition on chorio-allantoic membranes of fertilized fowl eggs; conditions: in vivo

Nc1ncnc2c1ncn2[C@@H]1O[C@H](COP(=O)(O)OS(=O)(=O)O)[C@@H](O)[C@H]1O [APS, adenosine 5'-phosphosulfate]
therapeutic effect as compared with MPA (in words) [1]: excellent therapeutic effect | beneficial effect on the pathologic state ([1]; 1.5 mg/kg): 10% | beneficial effect on the pathologic state ([1]; 3 mg/kg): 70% | beneficial effect on the pathologic state ([1]; 6 mg/kg): at least 80% | inhibition of neovascularization caused by prostaglandin E1 or cuprous chloride [2]: perfectly inhibit the neovascularization | neovascularization inhibition (in words) [3]: inhibited neovascularization in a dose-dependent manner | neovascularization inhibitory effect (in words) [3]: slight effect; also recorded: perfect neovascularization inhibitory effect

“Also recorded” adds a separate entry of the source.
